Test results from article PMC5118412 (Cell Discovery, 2016).

Chains of the proteins cited; added tags and fusions are not shown. Residues count along the entry.
UniProt P43220, 24-463: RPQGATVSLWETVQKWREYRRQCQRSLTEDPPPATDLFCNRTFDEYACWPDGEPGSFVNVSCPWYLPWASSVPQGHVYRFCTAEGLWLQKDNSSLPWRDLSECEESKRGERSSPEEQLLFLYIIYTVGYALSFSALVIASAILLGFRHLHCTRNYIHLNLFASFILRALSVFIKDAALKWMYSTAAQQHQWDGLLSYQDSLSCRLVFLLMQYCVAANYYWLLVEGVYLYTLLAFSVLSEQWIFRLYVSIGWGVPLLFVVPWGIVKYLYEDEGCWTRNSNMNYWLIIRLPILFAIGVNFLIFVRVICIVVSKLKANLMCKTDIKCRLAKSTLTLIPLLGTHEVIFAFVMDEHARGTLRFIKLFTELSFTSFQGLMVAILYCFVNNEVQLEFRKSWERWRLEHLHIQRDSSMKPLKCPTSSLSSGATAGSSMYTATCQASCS

Biological target: T1, human GLP-1R (Homo sapiens, UniProt P43220)
T1 construct: expressed in transfected cells
Experiment: cAMP CRE-NanoLuc reporter assay, stable GLP-1R/NlucP-293 cells, peptide dose response
Type: cell-based
Details: AD293-GLP-1R stable cells, pNL-NlucP-CRE; peptide 30 μM to 0.1 pM, 4 h; two independent experiments, each in triplicate; read-out: EC50 (cAMP signal)

EC50: 262 nM
Structure (SMILES): CC[C@H](C)[C@H](NC(=O)[C@H](Cc1ccccc1)NC(=O)[C@H](CCC(=O)O)NC(=O)[C@H](CCCCN)NC(=O)[C@H](C)NC(=O)[C@H](C)NC(=O)[C@H](CCC(N)=O)NC(=O)CNC(=O)[C@H](CCC(=O)O)NC(=O)[C@H](CC(C)C)NC(=O)[C@H](Cc1ccc(O)cc1)NC(=O)[C@H](CO)NC(=O)[C@H](CO)NC(=O)[C@@H](NC(=O)[C@H](CC(=O)O)NC(=O)[C@H](CO)NC(=O)[C@@H](NC(=O)[C@H](Cc1ccccc1)NC(=O)[C@@H](NC(=O)CNC(=O)[C@@H](N)CCC(=O)O)[C@@H](C)O)[C@@H](C)O)C(C)C)C(=O)N[C@@H](C)C(=O)N[C@@H](Cc1c[nH]c2ccccc12)C(=O)N[C@@H](CC(C)C)C(=O)N[C@H](C(=O)N[C@@H](CCCCN)C(=O)NCC(=O)N[C@@H](CCCNC(=N)N)C(=O)NCC(=O)O)C(C)C [GLP-1(9-37)]
